The source of these data is the supplement of paper PMC13380429.

Structures are written as SMILES. For some assays here: Shown are results outside the selection of highest values, which stands elsewhere. For some assays here: What follows is the remainder of the data, with few or none of the hits.

In experiment [1] the test system is Vero E6 infected with SARS-CoV-2. Briefly: morphology score (similarity to uninfected cells); higher = more like uninfected cells. Particulars: 10 µM; 24 h.
Experiment [2] shares this test system. Briefly: SARS-CoV-2 infection rate relative to infected DMSO; higher = more infection, active = 60 or less. Particulars: 10 µM; 24 h.

As for `COc1cc(Br)c(C[N+]2(CCOCCC3CCC4CC3C4(C)C)CCOCC2)cc1OC` (configuration not stated) [pinaverium], the morphology score in experiment [1] was -0.139. Also, the SARS-CoV-2 infection rate in experiment [2] was inactive: 112%.
